For this experiment, the target named is T1, cIAP1-BIR3 (Homo sapiens, UniProt Q13490).
T1 construct: from the BIR3 domains of XIAP, cIAP1, and cIAP2
The experiment can be described thus: DELFIA displacement assay (biotinylated AVPI peptide). Format: binding.

What is called IC50 is the concentration that gives 50% inhibition. A high value points to lower potency. As to `CN[C@@H](C)C(=O)N[C@H](C(=O)N1CCC[C@H]1C(=O)N[C@@H]1CCc2c(OS(=O)(=O)F)cccc21)C1CCCCC1` [142D6, (R)-1-((S)-1-((S)-2-cyclohexyl-2-((S)-2-(methylamino)propanamido)acetyl)pyrrolidine-2-carboxamido)-2,3-dihydro-1H-inden-4-yl sulfurofluoridate], the half-inhibitory concentration (IC50) reads like this: (after 6 h preincubation (bottom values)) 14 nM; (without preincubation (top values)) 21 ± 4 nM.

(Values after paper PMC10291551, “Characterization of a Potent and Orally Bioavailable Lys-Covalent Inhibitor of Apoptosis Protein (IAP) Antagonist” (Journal of Medicinal Chemistry, 2023).)
